Screens deposited in PubChem BioAssay by ICCB-Longwood Screening Facility, Harvard Medical School.
This is a sample that favours compounds with a hit; in the whole collection about 0.46% have one here.
GIV-Gai inh: inhibitors of GIV peptide binding to Galpha-i3, primary screen, biochemical, fluorescence polarization, FITC-GIV GBA peptide, rat Galphai3. Guanine nucleotide-binding protein G(i) subunit alpha-3 (Rattus norvegicus), P08753. 90 min; stronger effect = lower value; scaled: aluminum fluoride 0%, vehicle 100%. percent of control (FP), % (test concentration not listed). hit rate 0.42% among 210,000. AID 1224905, 2016;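 active = replicate mean at 85% of control or lower, very high polarization wells dropped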;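 note: wells of about 15 µL received 100 nL stock; the first replicate is given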
HCMV NEC inh: disrupts HCMV UL50-UL53 complex binding | actives 0.15% (n = 190,000) | AID 1918969 | HTRF UL50-UL53 interaction, normalized percent inhibition | inhibition, % (no concentration beside the values); in the data active = inhibition above about 27%, passing the limit was not always enough
* hit, by the source's call; / = no result.

Protein sequences, listed by entry. Tags and fused reporters are not part of them.
Guanine nucleotide-binding protein G(i) subunit alpha-3 (Rattus norvegicus), P08753, UniProt P08753, whole entry, looked up: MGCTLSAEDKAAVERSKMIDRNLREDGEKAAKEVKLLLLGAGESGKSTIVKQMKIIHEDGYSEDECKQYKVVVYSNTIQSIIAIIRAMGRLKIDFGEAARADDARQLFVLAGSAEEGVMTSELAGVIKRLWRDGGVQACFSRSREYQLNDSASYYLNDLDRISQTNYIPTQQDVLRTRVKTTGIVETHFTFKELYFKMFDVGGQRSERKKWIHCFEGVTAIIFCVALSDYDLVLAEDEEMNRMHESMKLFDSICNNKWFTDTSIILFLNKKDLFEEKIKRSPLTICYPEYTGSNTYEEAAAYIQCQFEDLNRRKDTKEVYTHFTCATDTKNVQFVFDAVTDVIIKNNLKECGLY

Every second line gives: GIV-Gai inh, HCMV NEC inh
- COc1ccc(NC(=O)c2sc3nc(-c4ccc(OC)cc4)cc(C(F)(F)F)c3c2N)cc1
 : 96, -41
- Nc1c(C(=O)Nc2ccc(F)cc2)sc2nc(-c3cccs3)cc(C(F)(F)F)c12
 : -12*, -48
- CCOC(=O)C1=C(C)N=c2s/c(=C\c3ccc(O)c(Br)c3)c(=O)n2C1c1ccc(OC)cc1 (stereo not drawn)
 : 186, -10
- CCOC(=O)C1=C(C)N=c2s/c(=C\c3ccc(O)c(Br)c3)c(=O)n2C1c1ccc(OC)c(OC)c1 (stereo not drawn)
 : 71*, -12
- Cc1nnc2sc(-c3ccc(NC(=S)NC(=O)c4cccs4)cc3)nn12
 : 107, -8
- Cc1nc(CC(=O)O)c(C)s1
 : 94, -2
- COc1cccc(NC(=O)c2cc3ccccc3oc2=O)c1
 : /, -2
- COc1cccc(NC(=O)c2cc3cc4c5c(c3oc2=N)CCCN5CCC4)c1
 : -14*, -21
- Cc1ccc(NC(=O)c2cc3cc4c5c(c3oc2=N)CCCN5CCC4)cc1
 : -14*, -23
- N=c1oc2c(Cl)cc(Cl)cc2cc1C(=O)Nc1ccc(F)cc1
 : 100, -8
- O=C1CC2CCCC(CN1)N2CC(=O)N1CCCCCC1 (stereo not drawn)
 : 104, -7
- O=C(O)c1cccc(NCC2SC(=S)NC2=O)c1 (stereo not drawn)
 : /, -1
- COc1ccccc1N1CCN(C(=O)c2cc3n(n2)C(C(F)(F)F)CC(c2ccc(C)cc2)N3)CC1 (stereo not drawn)
 : 111, /
- COc1ccc(NC(=O)N2CCN(Cc3ccc4nccnc4c3)CC2)cc1
 : 98, -73
- CCNc1cc(N2CCC3(CC2)OCCO3)c2noc3c2c1C(=O)c1ccccc1-3
 : 240, -121

Every second line gives: GIV-Gai inh, HCMV NEC inh
- CC1CCN(c2cc(NC(C)C)c3c4c(onc24)-c2ccccc2C3=O)CC1
 : -4.4*, -117
- Cc1ccccc1Nc1cc(N2CCCC2)c2noc3c2c1C(=O)c1ccccc1-3
 : 109, /
- Cc1ccccc1Nc1cc(N2CCCCC2)c2noc3c2c1C(=O)c1ccccc1-3
 : 107, /
- CCNc1cc(N2CCOCC2)c2noc3c2c1C(=O)c1ccccc1-3
 : -31*, -102
- CC(C)Nc1cc(N2CCN(Cc3ccc4c(c3)OCO4)CC2)c2noc3c2c1C(=O)c1ccccc1-3
 : -31*, -64
- CC(C)CNc1cc(N2CCC(C)CC2)c2noc3c2c1C(=O)c1ccccc1-3
 : 198, -53
- CC1CCN(c2cc(NCc3ccccc3)c3c4c(onc24)-c2ccccc2C3=O)CC1
 : -4.4*, -71
- COc1ccc(Nc2nnc(SCC(=O)c3cc(C)n(-c4nccs4)c3C)s2)cc1
 : /, 10
- O=C(CSc1c2c(nc3ccccc13)CCCC2)N1CCCCC1
 : 106, -7
- COc1ccc(C2NC(=O)NC(C)=C2C(=O)Nc2ccc(F)c(F)c2)c(OC)c1 (stereo not drawn)
 : 106, /
- COCn1nc(-c2ccccc2Cl)oc1=S
 : /, 4
- CC(C)Nc1cc(Br)c2noc3c2c1C(=O)c1ccccc1-3
 : -55*, /
- O=C1c2ccccc2-c2onc3c(Br)cc(NC4CCCCC4)c1c23
 : 86, -21
- O=C1c2ccccc2-c2onc3c(N4CCN(C5CCCCC5)CC4)cc(NCCO)c1c23
 : 100, -136
- CN(C)CCCNc1cc(N2CCN(C3CCCCC3)CC2)c2noc3c2c1C(=O)c1ccccc1-3
 : -7.2*, -151

Record cards (already shown).
`COc1ccc(C2NC(=O)NC(C)=C2C(=O)Nc2ccc(F)c(F)c2)c(OC)c1` (stereo not drawn) across the screens: GIV-Gai inh = 106; HCMV NEC inh = /
`CC(C)Nc1cc(Br)c2noc3c2c1C(=O)c1ccccc1-3` across the screens: GIV-Gai inh = -55*; HCMV NEC inh = /

Other records:
Every second line gives: GIV-Gai inh, HCMV NEC inh
- Cc1c(C(=O)N(Cc2ccc(N(C)C)cc2)Cc2ccco2)oc2ccccc12
 : 103, -16
- COC(=O)C(C)N1C(=O)S/C(=C/c2ccc(N3CCCCCC3)o2)C1=O (stereo not drawn)
 : -15*, -47
- O=C(CN1C(=O)S/C(=C/c2ccc(N3CCCCCC3)o2)C1=O)N1CCCCCC1
 : /, -25
- N#Cc1c(-c2ccco2)cc(-c2cccs2)[nH]c1=O
 : 103, -112
- COc1ccc(-c2cc(=O)oc3cc(O)c(Cl)cc23)cc1
 : 101, -75
- O=c1cc(C(F)(F)F)c2cc(Cl)c(O)cc2o1
 : -94*, -44
- CCCSc1nc2c(c(=O)[nH]c(=O)n2C)n1C(C)C
 : 106, 0
- O=C1/C(=C/C2=Cc3ccccc3OC2)SC(=S)N1C1CCS(=O)(=O)C1 (stereo not drawn)
 : -35*, -48
- O=C1/C(=C/c2cn(-c3ccccc3)nc2-c2ccc(Cl)cc2)SC(=S)N1C1CCS(=O)(=O)C1 (stereo not drawn)
 : 105, -7
- Cc1nc2nc(-c3ccccc3)nn2c(C)c1CC(=O)N1CCCCC1C (stereo not drawn)
 : 106, -23
- O=C1Nc2ccccc2/C1=C/c1ccccc1
 : 109, /
- O=C1/C(=C/c2ccccc2)Nc2ccccc21
 : -102*, -72
- CCCOC(=O)c1c(C)oc2c1cc(NS(=O)(=O)c1ccc(OCC)cc1)c1ccccc12
 : 108, -43
- CCOc1ccc(S(=O)(=O)Nc2cc(Cl)c(O)c3ccccc23)cc1
 : /, 59*
- CCOC(=O)C1CCN(c2ncc(C(=O)OC)c3ccccc23)CC1
 : 106, /

Every second line gives: GIV-Gai inh, HCMV NEC inh
- O=C(CN1C(=O)CSc2ccc(S(=O)(=O)N3CCOCC3)cc21)N1CCc2ccccc2C1
 : 101, -7
- CCC(C)NC(=O)CN1C(=O)CCCc2ccccc21 (stereo not drawn)
 : 106, 6
- C[n+]1cccc2ccc(O)cc21
 : -7.5*, -53
- Oc1ccc2ccccc2c1
 : /, -49
- O=C1CSc2ccc(S(=O)(=O)N3CCC(C(=O)NC4CC4)CC3)cc2N1
 : 105, -4
- CCOC(=O)N1CCN(C(=O)CN(c2ccc(Cl)c(C(F)(F)F)c2)S(=O)(=O)c2ccccc2)CC1
 : 100, 0
- CC(C)(C)C(=O)[C@@H]1[C@@H](c2cccs2)C(C#N)(C#N)[C@H]2C=Cc3ccccc3N12
 : -45*, /
- CC(C)(C)C(=O)[C@@H]1[C@@H](c2ccsc2)C(C#N)(C#N)[C@H]2C=Cc3ccccc3N12
 : 123, /
- CCOc1ccc2c(c1)C(=C1SC(C(=O)OC)=C(C(=O)OC)S1)C(=S)C(C)(C)N2C(=O)CCC1CCCCC1
 : 109, /
- O=C1c2ccccc2-c2nc3ccccc3nc21
 : 104, -135
- CCN(CC)c1ccc2nc3c(nc2c1)C(=O)c1ccccc1C3=O
 : 107, 64*
- CCN(CC)c1ccc(C=C2C(=O)c3ccccc3C2=O)c(OC)c1
 : -18*, /
- CCC(=O)Nc1ccc2nc3c(=O)n(C)c(=O)n(C)c3nc2c1
 : 102, -152
- CCN(CC)c1ccc2nc3c(=O)n(C)c(=O)n(C)c3nc2c1
 : -26*, -138
- CCOc1cccc(N2C(=O)/C(=C\c3ccc(N(CC)CC)cc3OC)C(=O)NC2=S)c1
 : 222, -14

Every second line gives: GIV-Gai inh, HCMV NEC inh
- O=C(CCSc1ccc(F)cc1)NNc1ccc(C(=O)O)cc1
 : /, -8
- Cc1ccc(N(Cc2ccco2)C(=O)CNS(=O)(=O)c2ccc(Cl)cc2)cc1
 : /, -12
- CCCc1oc2ccc(NS(=O)(=O)c3ccc(C(C)(C)C)cc3)cc2c1C(=O)OCC
 : 103, /
- CCOC(=O)CSc1nc2c(-c3ccccc3)c[nH]c2c(=O)[nH]1
 : 114, -8
- CC1(C)OC(=O)C(=Cc2ccc(C#N)cc2)C(=O)O1
 : 100, -27
- O=S(=O)(c1ccc(F)cc1)c1nc(-c2ccc(Cl)cc2)oc1NCC1CCCO1 (stereo not drawn)
 : 103, -16
- COc1cc2c(C#N)c(N(C)CCc3ccc(OC)c(OC)c3)nc(N)c2c(N)n1
 : /, -11
- COc1ccc(CCN(C)c2nc(N)c3c(N)nc(SCC(=O)O)cc3c2C#N)cc1OC
 : /, 82*
- N#CC1=C(N)C(C#N)(C#N)C(c2ccc(Br)cc2)C2CN(Cc3ccccc3)CC=C12 (stereo not drawn)
 : 165, /

A second format for some results above.
Compound | GIV-Gai inh | HCMV NEC inh
CCOC(=O)CSc1nc2c(-c3ccccc3)c[nH]c2c(=O)[nH]1 | 114 | -8
CC1(C)OC(=O)C(=Cc2ccc(C#N)cc2)C(=O)O1 | 100 | -27
